# Apparent affinities of Ab-14 variants for a coronavirus HR2 peptide

Data: MIT Lincoln Laboratory AlphaSeq set, Engelhart et al. 2022, doi:10.1038/s41597-022-01779-4, as distributed in FLAb.

Antigen: PDVDLGDISGINAS, a 14-residue peptide of the SARS-CoV-2 spike HR2 region.

Ab-14 is the parent antibody, in scFv form: VH, then a (GGGGS)3 linker, then VL. The heavy chain is unchanged in all variants.
VH: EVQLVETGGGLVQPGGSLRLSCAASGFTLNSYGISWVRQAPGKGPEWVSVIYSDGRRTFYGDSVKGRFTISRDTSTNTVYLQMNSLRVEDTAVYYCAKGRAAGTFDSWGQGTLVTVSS
VL: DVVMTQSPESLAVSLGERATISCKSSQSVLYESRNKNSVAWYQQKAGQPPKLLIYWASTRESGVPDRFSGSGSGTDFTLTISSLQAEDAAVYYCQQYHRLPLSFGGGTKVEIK

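Phage display of a naive human antibody library on the peptide gave the parent. AAYL50 was designed without a model: most single CDR substitutions and a random sample of double and triple ones. Affinity was read by AlphaSeq, a pooled yeast mating assay with surface-displayed partners. After mating in shaken culture at 30 °C for 16 h, diploids were selected and their barcode pairs sequenced. The ratio of observed to expected reads was calibrated, replicate by replicate, on BCL2-family standards whose Kd was known from biolayer interferometry. Mating was done three times.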

Variants are written as CDR1, CDR2 and CDR3 of the light chain (limits as in the source). Parent: KSSQSVLYESRNKNSVA, WASTRES, QQYHRLPLS. The Kd shown is the geometric mean over detected replicates; a lower Kd is a better binder. An entry "nd" has no value in the source: the pair was not observed among the diploids in any replicate. This suggests poor binding but is not conclusive.

Result nd (0 of 3 replicates), variant KSSQSVLYESQNKNSSA / WASTRES / QRYHRLPLS.
Result 220 nM (3 of 3 replicates), variant KSSQSVLYESRSKNSVA / WASTRES / QQYVRMPLS.
Result 2.4 µM (1 of 3 replicates), variant KSSQSVLYESRNKNSRH / WASTRES / QQYFRLPLS.
Result 97 nM (3 of 3 replicates), variant KSSQSVLYESRNKNAVA / WADKRES / QQYHRLPLS.
Result 45 µM (2 of 3 replicates), variant KSSQSVLYESRNANSVA / WRSTRES / QNYHRLPLS.
Result 660 nM (3 of 3 replicates), variant KSSQSVLYESRNKNSVA / EASTEES / PQYHRLPLS.
Result nd (0 of 3 replicates), variant KSSQQVIYESRNKNSVA / WASTRES / QQYHRLPSS.
Result 7.8 µM (1 of 3 replicates), variant KLSQSVLYESRNKNSVR / WASTREI / QQYHRLPLS.
Result 7.7 µM (2 of 3 replicates), variant KSSQSVLYESNNKNSVA / CASTRES / QQYHRLPLD.
Result 110 nM (3 of 3 replicates), variant KESQSVLYERRNKNSVA / WASTRES / QQYHRLMLS.
Result 250 nM (3 of 3 replicates), variant ISSQSVLYESRPKNSVA / WASTRES / QQYHELPLS.
Result 890 nM (3 of 3 replicates), variant ESSQSVLYESRNKNSVA / QASTRES / QQYHRQPLS.
Result nd (0 of 3 replicates), variant KSCQSVSYESRNKNSPA / WASTRES / QQYHRLPLS.
Result nd (0 of 3 replicates), variant KASQSVLYESRNKNSVA / WASTRFT / QQYHRLPLS.
Result 1.6 nM (3 of 3 replicates), variant KSSQSVLYESRNKNSCA / GASTRES / QQYHRLPLN.
Result 10 nM (3 of 3 replicates), variant KSSQSVLYPSRNKNNVA / WASTRES / QQYHRLPLS.
Result 31 µM (3 of 3 replicates), variant GSSQSVLYESRNKTSVA / WASTRES / QEYHRLPLS.
Result 4.2 µM (2 of 3 replicates), variant GSSQSPLYESRNKNSVQ / WASTRES / QQYHRLPLS.
Result nd (0 of 3 replicates), variant KSSQSVLYESRNKNSVA / WASTRWW / QQYHRCPLS.
Result 280 nM (2 of 3 replicates), variant KSSQSHLYESRNKNSVA / WASHRES / QQYHRLPLH.
Result 470 nM (3 of 3 replicates), variant KSLQNVLYESRNKNSVA / WASTRPS / QQYHRLPLS.
Result nd (0 of 3 replicates), variant KSSQSVLYESRNKNSVA / WASTRES / QMGHHLPLS.
Result 580 nM (1 of 3 replicates), variant KSSQSVLYESRNKNWCA / RASTRES / QQYHRLPLS.
Result nd (0 of 3 replicates), variant KSSQHVLYESRNKNSVA / WASTYES / QQYHSLPLS.
Result 39 µM (3 of 3 replicates), variant KSSQSVLYESRNKNSVA / WASTRER / QQYHRLMLS.
Result 470 nM (3 of 3 replicates), variant KSSQMVLYSSRNKNSVA / WASTRES / QQYWRLPLS.
Result 11 nM (3 of 3 replicates), variant KSSQSVLYESRNGNSVA / WASIRES / QQYHRLSLS.
Result 120 µM (2 of 3 replicates), variant KSSQSVLYESRNPNSVA / WAPTQES / QQYHRLPLS.
Result 61 µM (1 of 3 replicates), variant KSSQGVLYESRNHNSVA / WASTRES / QNYHRLPLS.
Result 3.2 µM (1 of 3 replicates), variant KSSQSVLYESRNTNSVA / WASTRES / QQYHFEPLS.
Result 230 µM (1 of 3 replicates), variant KQSQSVLYESRNKNSVQ / WASTRES / QQYHRLELS.
Result nd (0 of 3 replicates), variant KSSQSVFYESRNKNSVA / WAATRES / QKYHRLPLS.
Result 1.2 µM (1 of 3 replicates), variant KSSASVLYESRNKNAWA / WASTRES / QQYHRLPLS.
Result 3.2 µM (2 of 3 replicates), variant KSSQSVHRESRNKNSVA / WASTRES / QGYHRLPLS.
Result nd (0 of 3 replicates), variant KSSQSVLYESRNKNSVA / WYSTRFS / QQYHLLPLS.
Result 280 µM (2 of 3 replicates), variant KSSQSVLYESRNANSVA / WASTRES / QQYHKLSLS.
Result 1.5 µM (1 of 3 replicates), variant KSSQSVLYSSRNKNSVW / WASTREV / QQYHRLPLS.
Result nd (0 of 3 replicates), variant KSSQSVAYESRNKNSDA / WASTRES / QQYPRLPLS.
Result 190 nM (3 of 3 replicates), variant KSSQSVLYESRNKNSVA / WASTRES / EQYHRPPLS.
Result 280 nM (3 of 3 replicates), variant KSSQSVLQEIRNKNSVA / WASTIES / QQYHRLPLS.
Result nd (0 of 3 replicates), variant KSSQSVQYESRNKNSVA / WASTRES / QQYHQLDLS.

Top 4 of the variants detected in all replicates, tightest first:

| CDR-L1 | CDR-L2 | CDR-L3 | Kd (apparent) | replicates with signal |
|---|---|---|---|---|
| KSSQSVLYESRNKNSCA | GASTRES | QQYHRLPLN | 1.6 nM | 3/3 |
| KSSQSVLYPSRNKNNVA | WASTRES | QQYHRLPLS | 10 nM | 3/3 |
| KSSQSVLYESRNGNSVA | WASIRES | QQYHRLSLS | 11 nM | 3/3 |
| KSSQSVLYESRNKNAVA | WADKRES | QQYHRLPLS | 97 nM | 3/3 |

For reference, the parent read 4.4 nM as the reference entry and 48 nM as a member of this library. Empty control strains, which show no peptide, gave a signal in 18% of pairings with library AAYL50; the median was 15 µM and 95% of these signals were weaker than 970 nM. No background was subtracted.